This passage reports largest response in the series, negative = inhibition results from PubChem BioAssay AID1490 (National Center for Advancing Translational Sciences (NCATS), 2009).

Each structure is given as a SMILES string. Values joined by “and” are separate entries in the source; they are usually repeats but may differ in a detail not shown here. Identical values can stand only once. The entries are a selection whose mix differs from that of the whole data set. Inconclusive results are not listed. Active and inactive are the calls of the source. Calls come from the whole dose curve; as a rule, active = well fitted inhibition curve with a large enough effect; inconclusive = small, poorly fitted or top-dose-only effect, or another doubt; inactive = no such curve, though single readings can be large or run the other way.

This assay has as its target 4'-phosphopantetheinyl transferase ffp (Bacillus subtilis) (UniProt Q9F4F7). Put plainly: qHTS Assay for Inhibitors of Bacillus subtilis Sfp phosphopantetheinyl transferase (PPTase).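 Note: the enzyme is Sfp with the accession as filed and its product quenches rhodamine fluorescence; 0% = enzyme reaction without inhibitor and -100% = no enzyme wells.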 The note with it: Biochemical Sfp PPTase activity. For orientation: qHTS replaces the single test concentration by a dilution series.
For the compound `CCOP1(=S)c2c(C)nn(CCC#N)c2N=C(c2ccc(F)cc2)N1C` (stereo not given), the largest response in the series, negative = inhibition is inactive: -9.06%.

As to `O=[N+]([O-])c1ccc2c(c1)nnn2O`, the largest response in the series, negative = inhibition was inactive: 13.2%.

In the case of `NC(=O)Nc1ccc([As](=O)(O)O)cc1`, the largest response in the series, negative = inhibition is inactive: 10.2% and inactive: 14.5% and inactive: 11.3%.

For the compound `Cc1cccc(OCC(=O)OC2CN3CCC2CC3)c1` (stereo not given), the largest response in the series, negative = inhibition is inactive: 0.584%.

On to `O=[As](O)(c1cccc(O)c1)c1cccc(O)c1`, for which the largest response in the series, negative = inhibition is inactive: 29.3%.

As for `CN(C(=O)Cc1ccc(Cl)c(Cl)c1)[C@@H]1CC[C@]2(CCCO2)C[C@H]1N1CCCC1`, the largest response in the series, negative = inhibition was inactive: -25.1%.

With `O=C(OC1CN2CCC1CC2)c1ccc(Cl)cc1` (stereo not given), the largest response in the series, negative = inhibition was inactive: 17.6%.

In the case of `CS(=O)(=O)c1ccc(Cl)c(NC(=O)COC(=O)C(O)(c2ccccc2)c2ccccc2)c1`, the largest response in the series, negative = inhibition was inactive: 9.27%.

In the case of `O=[As](O)(O)c1cccnc1`, the largest response in the series, negative = inhibition was inactive: 7.01%.

Take `COc1cc(C(=O)NCC2(N3CCOCC3)CCCCC2)cc(Cl)c1OC(C)C`: the largest response in the series, negative = inhibition was inactive: 3.58%.

In the case of `CCOP(=O)(Nc1cccc2ccccc12)OCC`, the largest response in the series, negative = inhibition was inactive: 3.66%.

As to `Cc1ccc(NCCc2c([N+](=O)[O-])cc([N+](=O)[O-])cc2[N+](=O)[O-])cc1`, the largest response in the series, negative = inhibition was inactive: -12.1%.

In the case of `Nc1cccc2c([As](=O)(O)O)cccc12`, the largest response in the series, negative = inhibition is inactive: -16.6%.

As to `CCCOP(=S)(Nc1nc(N)cc(=O)[nH]1)OCCC`, the largest response in the series, negative = inhibition was inactive: -1.94%.

Regarding `CC(C)(C)C(=O)NC(Sc1ccccc1)C(Cl)(Cl)Cl` (stereo not given), the largest response in the series, negative = inhibition is inactive: 12.5%.

In the case of `O=P1(Nc2nc3ccc(Cl)cc3s2)COc2ccccc2O1` (stereo not given), the largest response in the series, negative = inhibition is inactive: 4.81%.

`CC(=O)Nc1ccc([As](=O)(O)O)c(O)c1`: the largest response in the series, negative = inhibition was inactive: 1.76%.

For the compound `C[C@H]1OP(=O)(Oc2ccccc2)C[C@@H]2O[C@@H]21` (stereo not given in full), the largest response in the series, negative = inhibition was inactive: 6.68%.

For `C[C@@H]1C=CCP(=O)(Oc2ccccc2)O1` (stereo not given in full), the largest response in the series, negative = inhibition was inactive: 8.64%.

Turning to `O=C(OCCN1CCN(CCOCc2ccccc2)CC1)C(O)(c1ccccc1)c1ccccc1`, the largest response in the series, negative = inhibition was inactive: 8.9%.

Regarding `CC(=O)c1ccc(N2CC2c2ccncc2)cc1` (stereo not given), the largest response in the series, negative = inhibition is inactive: 8.42%.

`Cc1ccc(NP(=O)(Oc2cccc(C)c2)Oc2cccc(C)c2)nc1`: the largest response in the series, negative = inhibition was inactive: 12.5%.

Consider `CCOC(=O)NC(Sc1ccccc1)C(Cl)(Cl)Cl` (stereo not given), for which the largest response in the series, negative = inhibition is inactive: 20.1%.

As to `c1ccc(-c2nn[nH]n2)c(-c2nn[nH]n2)c1`, the largest response in the series, negative = inhibition was inactive: 0.305%.

As to `O=C(NC1CCS(=O)(=O)C1)NP(=S)(Oc1ccccc1)Oc1ccccc1` (stereo not given), the largest response in the series, negative = inhibition was inactive: 6.42%.

As to `O=c1c2cc([N+](=O)[O-])ccc2[nH]c2c([N+](=O)[O-])cc([N+](=O)[O-])cc12`, the largest response in the series, negative = inhibition is inactive: 8.43%.

Regarding `CN(C)C(=O)Oc1noc2ccccc12`, the largest response in the series, negative = inhibition was inactive: 7.57%.

Consider `Cc1ccccc1OP(=O)(Nc1ccccn1)Oc1ccccc1C`, for which the largest response in the series, negative = inhibition is inactive: 4.7%.

As to `CCN(CC)CCCOC(=O)C(O)(c1ccccc1)C1CCCCC1` (stereo not given), the largest response in the series, negative = inhibition is inactive: 18.1%.

With `CCC(=O)N1C2C3N(C(=O)CC)C1C1N(C(=O)CC)C(C(N1C(=O)CC)N3C(=O)CC)N2C(=O)CC`, the largest response in the series, negative = inhibition is inactive: 12.9%.

Regarding `O=C(OC1CN2CCC1CC2)c1ccccc1` (stereo not given), the largest response in the series, negative = inhibition was inactive: 6.76% and inactive: 4.47%.

As for `CC(=O)NC(SC(=S)N(CC(C)C)CC(C)C)C(Cl)(Cl)Cl` (stereo not given), the largest response in the series, negative = inhibition was inactive: 8.44%.

Turning to `Cc1ccc(OP(=O)(Nc2ccccn2)Oc2ccc(C)cc2)cc1`, the largest response in the series, negative = inhibition was inactive: 4.67%.

Take `COC(=O)c1cc2c(s1)N=C(c1ccccc1)N(C)P2(=O)N1CCOCC1` (stereo not given): the largest response in the series, negative = inhibition was inactive: 21.5%.

`CN(C(=O)Cc1ccccc1)[C@H]1CC[C@@]2(CCCO2)C[C@@H]1N1CCCC1`: the largest response in the series, negative = inhibition was inactive: -4.78%.

As to `C[C@H]1OP(=O)(Oc2ccccc2)[C@H](O)[C@H](O)[C@H]1N=[N+]=[N-]` (stereo not given in full), the largest response in the series, negative = inhibition was inactive: 9.67%.

With `CN(C)CCOC(=O)C(O)(c1ccccc1)C1CCCCC1` (stereo not given), the largest response in the series, negative = inhibition is inactive: 15.3%.

As to `O=P(Nc1nc2ccccc2s1)(c1ccccc1)c1ccccc1`, the largest response in the series, negative = inhibition is inactive: -3%.

Turning to `O=P(Nc1ccccn1)(c1ccc(Br)cc1)c1ccc(Br)cc1`, the largest response in the series, negative = inhibition is inactive: -11%.

For `CN(C)C1(CNC(=O)c2ccc(Cl)c(S(N)(=O)=O)c2)CCCCC1`, the largest response in the series, negative = inhibition was inactive: 11.3%.

For the compound `O=C(OC1CN2CCC1CC2)c1cccc(Cl)c1` (stereo not given), the largest response in the series, negative = inhibition is inactive: 4.51%.

For the compound `C(Cc1nn[nH]n1)Cc1nn[nH]n1`, the largest response in the series, negative = inhibition was inactive: -94.3%.

With `Nc1ccc([As](=O)(O)c2ccc([N+](=O)[O-])cc2)cc1`, the largest response in the series, negative = inhibition is inactive: 10.2%.

As to `O=[As](O)(c1ccccc1)c1ccc(O)cc1`, the largest response in the series, negative = inhibition was inactive: 20.5%.

Consider `O=[N+]([O-])c1ccc(O)c(/C=N/Nc2ccc([N+](=O)[O-])cc2[N+](=O)[O-])c1`, for which the largest response in the series, negative = inhibition is inactive: -15.2%.

`CC(=O)NC(SC(=S)N(C)C)C(Cl)(Cl)Cl` (stereo not given): the largest response in the series, negative = inhibition is inactive: -3.44%.

For `O=[N+]([O-])c1ccc(OP2(=O)COCCO2)cc1` (stereo not given), the largest response in the series, negative = inhibition is inactive: 6.78%.

As to `O=[N+]([O-])c1ncn(CCn2cnc([N+](=O)[O-])n2)n1`, the largest response in the series, negative = inhibition is inactive: 4.01%.

On to `c1nnnn1CCn1cnnn1`, for which the largest response in the series, negative = inhibition is inactive: 11.1%.

Consider `CCC(C)(OOC(C)(C)C)OOC(C)(C)C`, for which the largest response in the series, negative = inhibition was inactive: 1.37%.
